{
  "source": "paper PMC8359458",
  "about": "(British Journal of Clinical Pharmacology, 2021)",
  "parameters": "species or system human",
  "conditions": "in vivo",
  "data": [
    {"smiles": "CC(=O)C[C@@H](c1ccccc1)c1c(O)c2ccccc2oc1=O", "note": "[S‐warfarin]", "values": [
      {"measurement": "within‐subject variation in Cmax and AUC", "value": "≤ 14.2", "unit": "%"}
    ]}
  ]
}
